From PubChem BioAssay
MC4R antagonist = antagonists of human melanocortin 4 receptor (MC4R); P32245; MC4R-expressing cells, MTII-stimulated cAMP, LANCE TR-FRET; inhibition, % at 6.5 µM; 0.48% of 360,000 active; AID 540295;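 active = inhibition above its plate's cutoff, the mean of tested wells on that plate plus 3 SD, cut at about 29% in these data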;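 note: 0% = Melanotan II alone and 100% = Melanotan II plus saturating MCL0020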
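Material – human MC4R-expressing U2OS cells · Repeats – no replicates · Detection – TR-FRET with Eu-cAMP and labeled anti-cAMP, 671 nm · Times – compound 30 min, challenge 1 h, detection 1 h · Compound – single nominal compound dose of 6.5 µM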
ALR inh = human ALR oxidase inhibition via reduced H2O2; purified ALR, DTT oxidation, H2O2 HRP-luminol luminescence; P55789; 290,000 tested, 3.8% active; AID 485317; inhibition, % (no concentration beside the values);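 active means mean and each replicate at 75% or more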;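 further: stock transfer was 7.5 nL into about 7.5 µL; 0% = neutral wells and 100% = wells with inactivated enzyme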
UUG fidelity = modulators of yeast start codon fidelity, primary screen, whole organism, S. cerevisiae, single point, plate reader. S. cerevisiae UUG-firefly luciferase reporter, luminescence/redox ratio. activity score, % at 18.7 µM. 350,000 tested, 0.13% active;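 active = replicate mean at a twofold rise or more, about +100% in these data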;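 also: firefly luciferase made from a UUG start codon reports start codon fidelity; reporter light over untreated wells divided by growth signal over untreated wells; some hits fall short of that in this replicate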
HDAC3 inhib = inhibitors of human histone deacetylase 3 | O15379 | recombinant HDAC3, fluorogenic peptide/trypsin coupled, fluorescence | inhibition, % at 8.3 µM | 0.15% of 320,000 active | AID 2718; in the data active = inhibition above about 26%, passing the limit was not always enough
MC4R barr agon = human MC4R agonism via beta-arrestin | P32245 | U2OS MC4R beta-arrestin complementation, luminescence; percent of melanotan II response, DMSO zero | activation, % at 8.9 µM | 0.98% of 360,000 active | AID 540308;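 active = activation above a per-plate cutoff, the mean activation of sample wells on that plate plus 3 SD, cut at about 8% in these data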
NALP1 yeast inh = blocks the NALP1 inflammasome reconstituted in yeast; S. cerevisiae NALP1/ASC/caspase-1 growth, X-gal OD620, 72 h; inhibition, % at 10 µM; 0.61% of 280,000 active; AID 2071; in the data active = inhibition mostly above about 24%, no sharp cut-off; inactive = mostly below about 32%
Active calls of the source: *; nt = not tested or not shown. This is a sample that favours compounds with a hit; in the whole collection about 4.2% have one here.

1	CCN(c1ccc(NC(=O)COC(=O)c2cccs2)cc1)C(C)C
2	CC(=O)c1cccc(NC(=O)COC(=O)c2cccs2)c1
3	CCN(CC)c1ccc(NC(=O)COC(=O)c2cccs2)cc1
4	CC(=O)c1cccc(NC(=O)COC(=O)CCC(=O)c2ccc(F)cc2)c1
5	CCN(c1ccc(NC(=O)COC(=O)CCC(=O)c2ccc(F)cc2)cc1)C(C)C
6	C[C@H]1CN([C@@H](C)CO)C(=O)c2cc(-c3ccccc3F)cnc2O[C@H]1CN(C)C(=O)CN(C)C
7	COc1ccc(S(=O)(=O)N[C@H]2C=C[C@@H](CC(=O)N3CCC(Cc4ccccc4)CC3)O[C@H]2CO)cc1
8	COc1ccc(NC(=O)COC(=O)c2ccc3ccccc3n2)cc1
9	CCN(CC)c1ccc(NC(=O)COC(=O)c2ccc3ccccc3n2)cc1
10	O=C(Cc1ccncc1)NCC[C@H]1CC[C@@H](NC(=O)C2CCCCC2)[C@@H](CO)O1

| Assay by compound | 1 | 2 | 3 | 4 | 5 | 6 | 7 | 8 | 9 | 10 |
| --- | --- | --- | --- | --- | --- | --- | --- | --- | --- | --- |
| NALP1 yeast inh | -6 | 11 | 36* | nt | 18 | nt | nt | nt | 35 | nt |
| MC4R antagonist | -1 | 6 | 9 | 12 | 3 | nt | nt | -1 | -2 | nt |
| HDAC3 inhib | 6 | -4 | -3 | -2 | 1 | nt | nt | 1 | 6 | nt |
| MC4R barr agon | -2 | 0 | 0 | 1 | 2 | nt | nt | 3 | 0 | nt |
| ALR inh | 99* | -2 | 98* | -3 | 93* | nt | nt | -2 | 99* | nt |
| UUG fidelity | -12 | -19 | -20 | -4 | -6 | -12 | -4 | 3 | -15 | 4 |

11	Cc1ccc(OCC(O)CNC2CCCC2)c(C)c1 (stereo not given)
12	Cc1ccc(OCCCCNC2CCCCC2)c(C)c1
13	O=C1CSC(=NC2CCCCC2)N1
14	C[C@H](CO)N1C[C@H](C)[C@@H](CN(C)C(=O)Nc2ccc3c(c2)OCO3)OCCCC[C@H](C)Oc2ccc(NS(C)(=O)=O)cc2C1=O
15	COc1cc(CC(=O)OCC(=O)Nc2cc([N+](=O)[O-])ccc2F)cc(OC)c1OC
16	COc1ccccc1CCC(=O)OCC(=O)NC1CCCCC1
17	COc1ccccc1NCCC(=O)OCC(=O)NC1CCCCC1
18	O=C(COC(=O)CSc1ccc2ccccc2c1)NC1CCCC1
19	COc1ccccc1NCCC(=O)OCC(=O)NC1CC1
20	COc1ccccc1NCCC(=O)OCC(=O)Nc1cc([N+](=O)[O-])ccc1F

| Assay by compound | 11 | 12 | 13 | 14 | 15 | 16 | 17 | 18 | 19 | 20 |
| --- | --- | --- | --- | --- | --- | --- | --- | --- | --- | --- |
| NALP1 yeast inh | 4 | 44* | 2 | nt | 20 | 2 | 32 | 11 | 15 | nt |
| MC4R antagonist | -2 | -1 | 5 | nt | 28 | 0 | 19 | -3 | 4 | 3 |
| HDAC3 inhib | 10 | 9 | 1 | nt | 1 | -9 | -2 | -4 | -1 | 5 |
| MC4R barr agon | -1 | 4 | -1 | nt | -2 | -2 | -2 | -3 | -1 | 0 |
| ALR inh | 32 | -18 | 98* | nt | 7 | -2 | 99* | 100* | 99* | 93* |
| UUG fidelity | -7 | nt | -7 | -4 | nt | 2 | nt | 1 | -8 | -7 |

Reprinted at random: 3 compounds from above.
16	COc1ccccc1CCC(=O)OCC(=O)NC1CCCCC1
11	Cc1ccc(OCC(O)CNC2CCCC2)c(C)c1 (stereo not given)
18	O=C(COC(=O)CSc1ccc2ccccc2c1)NC1CCCC1

| Assay by compound | 16 | 11 | 18 |
| --- | --- | --- | --- |
| NALP1 yeast inh | 2 | 4 | 11 |
| MC4R antagonist | 0 | -2 | -3 |
| HDAC3 inhib | -9 | 10 | -4 |
| MC4R barr agon | -2 | -1 | -3 |
| ALR inh | -2 | 32 | 100* |
| UUG fidelity | 2 | -7 | 1 |

Further compounds
21	COc1ccc(S(=O)(=O)N[C@H]2CC[C@@H](CCNC(=O)Cc3ccccn3)O[C@@H]2CO)cc1
22	COc1cccc(C#Cc2cnc3c(c2)C(=O)N([C@H](C)CO)C[C@H](C)[C@@H](CN(C)C(C)=O)O3)c1
23	CCOc1cc(/C=N/NC(=O)c2ccccc2-n2cccc2)ccc1O
24	CCOc1cc(/C=C(/C#N)C(=O)Nc2ccc(O)cc2)cc(Br)c1O
25	CCOc1cc(/C=N/NC(=O)C(OC)c2ccccc2)ccc1O (stereo not given)
26	CCOc1cc(/C=N/NC(=O)c2ccccc2OCc2ccc(F)cc2)ccc1O
27	CCOc1cc(/C=N/NC(=O)C(C)Sc2ccccc2)ccc1O (stereo not given)
28	CNC(=O)C[C@H]1CC[C@H]2[C@@H](COC[C@H](O)CN2S(=O)(=O)c2ccc(Oc3ccccc3)cc2)O1
29	C[C@H]1CN([C@@H](C)CO)C(=O)c2cc(/C=C/c3ccccc3)cnc2O[C@@H]1CN(C)C(=O)c1ccccc1
30	CCOc1cc(/C=N/NC(=O)C(N)=O)cc(Br)c1O
31	CCOc1cc(/C=N/NC(=O)N/N=C/c2ccc(O)c(OCC)c2)ccc1O
32	CCOc1cc(/C=N/NC(=O)C(=O)NC2CC2)cc(Br)c1O

| Assay by compound | 21 | 22 | 23 | 24 | 25 | 26 | 27 | 28 | 29 | 30 | 31 | 32 |
| --- | --- | --- | --- | --- | --- | --- | --- | --- | --- | --- | --- | --- |
| NALP1 yeast inh | nt | nt | nt | nt | 5 | nt | -7 | nt | nt | -12 | nt | 28 |
| MC4R antagonist | nt | nt | -14 | -29 | -8 | 9 | 5 | nt | nt | -6 | nt | -6 |
| HDAC3 inhib | nt | nt | 2 | 15 | 3 | 13 | -1 | nt | nt | 5 | 9 | 6 |
| MC4R barr agon | nt | nt | -3 | -4 | 0 | -2 | -4 | nt | nt | 0 | nt | -2 |
| ALR inh | nt | nt | 99* | 99* | 100* | 50 | 99* | nt | nt | 91* | 99* | 3 |
| UUG fidelity | 9 | 5 | -10 | nt | -10 | -21 | nt | 9 | -5 | nt | nt | -15 |
